Data on two compounds can be found in patent US20220143198A1, “COMPOSITIONS AND METHODS RELATED TO TETHERED KETHOXAL DERIVATIVES” (The University of Chicago, priority 2019, published 2022).

Series [1] relates to guanines on RNA. Description: MALDI-TOF analysis of RNA oligos reacted with N3-kethoxal. The note with it: for Labelling of RNA oligo: mass spectrum.
Series [2] relates to single-stranded RNA. Description: Denaturing gel electrophoresis, selectivity for single-stranded RNA.
Series [3] has as its system N3-kethoxal labelled mRNA. Briefly: Dot blot analysis of reversibility of N3-kethoxal labelled mRNA with GTP. To be noted: 50 mM GTP at 95° C., 10 mins incubation.
The test system of series [4] is mES cells. Briefly: Dot blot of total RNA from mES cells treated with N3-kethoxal (cell permeability).
The test system of series [5] is guanosine. Briefly: Reactivity of kethoxal derivatives with guanosine (conversion rates of guanosine). In kind it is biochemical.
The subject of series [6] is guanosine. Description: Reversibility of kethoxal derivatives by adjusting pH (kethoxal-guanosine adduct dissociation). In kind it is physicochemical.
For series [7], the system named is guanosine. Description: Reversibility of kethoxal derivatives using GTP for competition (LCMS of free guanosine). The series is classed as physicochemical. To be noted: 1:1 ratio.

Take “3-(2-azidoethoxy)-1,1-dihydroxybutan-2-one”: the “Labelling of guanines on RNA” value in series [1] (MALDI-TOF analysis) is reported as “efficiently labels guanines on RNA”. In addition, the “Reactivity on other bases” value in series [1] (MALDI-TOF analysis) is “no reactivity was observed on other bases”. For the same compound, the “Labelling of RNA oligo” value in series [1] (RNA 1 with four guanines) is “all guanines and only guanine were labelled”; in series [1] (RNA 2 without guanine), “no N3-kethoxal labelling was observed”. Also, the figures for the “Gel shift (formation of RNA-kethoxal complex)” value in series [2] (double-stranded RNA) and in series [2] (single-stranded RNA) were “no such shift was detected” and “a shift was observed”, respectively. The “Removal of N3-kethoxal modification in mRNA” value in series [3] was “removed thoroughly”. Besides, in series [4], the “Time to label DNA and RNA in living cells” value is no more than 5 min. Also, the Cell permeability entry in series [4] (living cells) is “highly cell-permeable”.

`[N-]=[N+]=NCC(=O)C=O`: the “Conversion rate of guanosine” value in series [5] (pH = 7.0, S1:S2 = 1:1) was determined as 33.7%; in series [5] (pH = 7.0, S1:S2 = 1:2), 55.4%; in series [5] (pH = 7.0, S1:S2 = 1:4) it was 76.3%; in series [5] (pH = 7.0, S1:S2 = 2:1), 16.8%; in series [5] (pH = 7.8, S1:S2 = 1:1), 60.4%; in series [5] (pH = 7.8, S1:S2 = 1:2), 79.4%. Further, the “Conversion rate of guanosine” value in series [5] (pH = 7.8, S1:S2 = 1:3) came to 85.4%; in series [5] (pH = 7.8, S1:S2 = 2:1 (S1 guanosine, S2 kethoxal derivative)), 33.4%. The Conversion of guanosine came out at 23.8% in series [6] (pH = 5.8, 10 min after adjusting from pH 10.1, 1:1 ratio); 21.6% in series [6] (pH = 5.8, 4 h after adjusting from pH 10.1, 1:1 ratio); 20.8% in series [6] (pH = 5.8, 24 h after adjusting from pH 10.1, 1:1 ratio); 24.5% in series [6] (pH = 10.1, 10 min, kethoxal derivative and guanosine 1:1). Further, the “Conversion of guanosine under competition condition” value was found to be 34.6% in series [7] (pH = 7.0, 10 min, excess GTP added after 10 min); 24.8% in series [7] (pH = 7.0, 2 h, excess GTP competitor); 12.4% in series [7] (pH = 7.0, 24 h, excess GTP competitor).
